Measured values as given in patent publication US20250186432A1, “SPLEEN TYROSINE KINASE INHIBITOR, COMPOSITION, AND METHODS OF USE” (PURDUE RESEARCH FOUNDATION, priority 2022, published 2025).
pIC50: −log10 of the molar value.

Amino acid sequences for entries named in this document (tags omitted). Residues count along the entry.
UniProt P08581, 25-1390: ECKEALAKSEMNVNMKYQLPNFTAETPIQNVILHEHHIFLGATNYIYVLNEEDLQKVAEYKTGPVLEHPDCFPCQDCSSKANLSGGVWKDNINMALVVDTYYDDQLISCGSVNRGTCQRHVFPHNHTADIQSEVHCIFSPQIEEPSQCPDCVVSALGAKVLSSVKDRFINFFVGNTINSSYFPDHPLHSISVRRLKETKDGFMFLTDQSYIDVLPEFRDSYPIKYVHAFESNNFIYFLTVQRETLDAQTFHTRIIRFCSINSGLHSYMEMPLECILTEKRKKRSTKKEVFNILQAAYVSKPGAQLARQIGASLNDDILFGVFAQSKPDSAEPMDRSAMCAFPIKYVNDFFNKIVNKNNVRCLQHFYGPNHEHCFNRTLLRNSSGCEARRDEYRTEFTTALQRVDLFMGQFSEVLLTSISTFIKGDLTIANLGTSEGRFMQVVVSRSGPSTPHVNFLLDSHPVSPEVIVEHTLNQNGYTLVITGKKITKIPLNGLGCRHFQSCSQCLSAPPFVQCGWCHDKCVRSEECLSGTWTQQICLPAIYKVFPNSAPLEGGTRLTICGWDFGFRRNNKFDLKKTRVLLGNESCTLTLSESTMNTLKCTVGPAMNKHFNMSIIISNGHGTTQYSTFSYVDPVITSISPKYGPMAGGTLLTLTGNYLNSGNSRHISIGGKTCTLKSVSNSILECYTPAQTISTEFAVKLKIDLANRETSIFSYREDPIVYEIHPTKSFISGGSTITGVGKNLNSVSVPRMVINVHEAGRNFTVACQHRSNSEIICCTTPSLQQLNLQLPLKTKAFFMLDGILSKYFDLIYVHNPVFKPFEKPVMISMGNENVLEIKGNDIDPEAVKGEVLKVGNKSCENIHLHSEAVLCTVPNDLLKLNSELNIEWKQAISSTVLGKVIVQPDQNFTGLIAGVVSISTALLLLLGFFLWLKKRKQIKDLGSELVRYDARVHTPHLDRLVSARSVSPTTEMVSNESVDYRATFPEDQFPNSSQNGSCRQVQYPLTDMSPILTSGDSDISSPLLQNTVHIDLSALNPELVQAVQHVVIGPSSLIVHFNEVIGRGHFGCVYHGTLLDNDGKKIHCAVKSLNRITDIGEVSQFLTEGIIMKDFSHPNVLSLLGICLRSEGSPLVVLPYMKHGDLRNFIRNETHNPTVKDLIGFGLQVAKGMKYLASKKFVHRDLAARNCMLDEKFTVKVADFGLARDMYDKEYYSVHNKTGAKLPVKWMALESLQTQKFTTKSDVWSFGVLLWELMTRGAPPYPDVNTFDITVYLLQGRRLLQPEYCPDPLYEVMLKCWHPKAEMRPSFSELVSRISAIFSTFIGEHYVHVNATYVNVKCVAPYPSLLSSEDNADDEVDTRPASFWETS
UniProt P00533, 25-1210: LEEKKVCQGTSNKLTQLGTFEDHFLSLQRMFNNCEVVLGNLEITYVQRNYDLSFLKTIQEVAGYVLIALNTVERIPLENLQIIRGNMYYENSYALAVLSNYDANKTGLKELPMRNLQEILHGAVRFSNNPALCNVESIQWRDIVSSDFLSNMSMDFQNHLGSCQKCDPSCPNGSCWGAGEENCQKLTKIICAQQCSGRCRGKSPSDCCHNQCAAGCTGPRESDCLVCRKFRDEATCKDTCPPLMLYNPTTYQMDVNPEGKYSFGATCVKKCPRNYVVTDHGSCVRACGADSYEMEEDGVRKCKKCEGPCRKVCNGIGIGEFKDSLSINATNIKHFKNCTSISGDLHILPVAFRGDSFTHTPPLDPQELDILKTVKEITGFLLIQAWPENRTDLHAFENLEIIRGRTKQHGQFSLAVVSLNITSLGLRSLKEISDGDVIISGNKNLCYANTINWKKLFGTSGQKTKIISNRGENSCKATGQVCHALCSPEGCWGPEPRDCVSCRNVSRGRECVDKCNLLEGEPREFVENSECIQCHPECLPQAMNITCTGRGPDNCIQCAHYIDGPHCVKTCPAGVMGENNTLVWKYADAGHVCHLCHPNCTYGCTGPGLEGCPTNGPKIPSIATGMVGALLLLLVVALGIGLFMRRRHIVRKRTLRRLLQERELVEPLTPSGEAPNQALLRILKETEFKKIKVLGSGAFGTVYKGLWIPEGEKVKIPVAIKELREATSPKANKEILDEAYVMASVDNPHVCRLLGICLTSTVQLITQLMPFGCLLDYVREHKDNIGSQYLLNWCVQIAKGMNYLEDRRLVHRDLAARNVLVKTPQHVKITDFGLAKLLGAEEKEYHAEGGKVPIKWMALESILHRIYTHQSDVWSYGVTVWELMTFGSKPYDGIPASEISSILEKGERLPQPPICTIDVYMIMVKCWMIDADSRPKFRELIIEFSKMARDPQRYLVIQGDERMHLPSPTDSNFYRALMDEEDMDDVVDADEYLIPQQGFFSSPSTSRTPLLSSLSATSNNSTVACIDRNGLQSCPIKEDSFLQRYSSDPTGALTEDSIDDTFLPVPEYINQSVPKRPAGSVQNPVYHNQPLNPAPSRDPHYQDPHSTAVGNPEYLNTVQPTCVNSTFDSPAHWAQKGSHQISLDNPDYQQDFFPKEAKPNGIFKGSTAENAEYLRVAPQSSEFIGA

Legend:
HGFR = HGFR (Homo sapiens, UniProt P08581); test: ADP-Glo kinase inhibition assay, HGFR
Syk = Syk (Homo sapiens, UniProt P43405); test: ADP-Glo kinase inhibition assay, Syk
EGFR = EGFR (Homo sapiens, UniProt P00533); test: ADP-Glo kinase inhibition assay, EGFR

## c1cn2cc(-c3ccc4cn[nH]c4c3)nc(Nc3ccc(N4CCOCC4)cc3)c2n1 [Entospletinib]
HGFR
  pIC50: 4.69
Syk
  pIC50: 7.92
EGFR
  pIC50: 5.75

## Nc1cncc(-c2cn3ccnc3c(Nc3ccc(N4CCN(C5COC5)CC4)cc3)n2)n1 [Lanraplenib]
Syk
  pIC50: 6.87
